Inhibition in vivo and Activity data for 1 molecule are collected here from ChEMBL document CHEMBL5608247, “Development of a First-in-Class DNMT1/HDAC Inhibitor with Improved Therapeutic Potential and Potentiated Antitumor Immunity” (J Med Chem, 2024).

Each structure is given as a SMILES string.

One series concerns MC-38. The series can be described thus: Antitumor activity against mouse MC38 cells allografted in immunocompetent C57BL/6J mouse at 30 mg/kg, ip qd for 13 days in presence of SAHA relative to control. The format is functional. To be noted: MC-38, 312 h, time 13 day, read-out: TGI.
A short description of series [1]: Toxicity in immunocompetent C57BL/6J mouse allografted with mouse MC38 cells assessed as drug tolerance at 30 mg/kg, ip qd for 13 days in presence of SAHA. The format is organism-based, MC-38. The conditions noted are these: in vivo, 312 h, time 13 day.
The nature of series [2]: Toxicity in immunocompetent C57BL/6J mouse allografted with mouse MC38 cells assessed as body weight loss at 30 mg/kg, ip qd for 13 days in presence of SAHA. To be noted: in vivo, 312 h, time 13 day. The class given is organism-based, MC-38.

Consider `CCc1c(C#N)c(SC(C(N)=O)c2ccccc2)nc(N2CCC(N)CC2)c1C#N` (stereo not drawn), for which the inhibition in vivo at 30 mg/kg with MC-38 is 74%. Besides, the Activity result in series [1] and in series [2] was “Non-Toxic” throughout.
